Binding of CDR-mutated scFvs to a peptide of the spike HR2 region

Data: MIT Lincoln Laboratory AlphaSeq set, Engelhart et al. 2022, doi:10.1038/s41597-022-01779-4, as distributed in FLAb.

Target peptide (SARS-CoV-2 spike, HR2 region): PDVDLGDISGINAS

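The starting antibody came from a phage panning campaign against this peptide. AAYL51 was designed without a model: most single CDR substitutions and a random sample of double and triple ones. The assay is AlphaSeq: two haploid yeast populations carry antibody and antigen on their surface. Pairs that bind mate more often; barcode pairs of the diploids are counted by sequencing. A regression on co-assayed BCL2-family reference pairs converts the normalised counts of each replicate to an apparent Kd. Each pool was mated in three replicate cultures.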

Ab-91 is the parent antibody, in scFv form: VL, then three GGGGS repeats, then VH. The light chain is unchanged in all variants.
VL: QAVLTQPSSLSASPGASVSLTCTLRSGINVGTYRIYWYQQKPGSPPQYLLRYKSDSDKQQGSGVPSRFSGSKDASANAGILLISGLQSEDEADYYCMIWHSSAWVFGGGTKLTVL
VH: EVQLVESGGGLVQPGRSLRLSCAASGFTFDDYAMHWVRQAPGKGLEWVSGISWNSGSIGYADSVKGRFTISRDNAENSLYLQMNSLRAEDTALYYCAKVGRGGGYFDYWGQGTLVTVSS

The parent's heavy chain CDRs are GFTFDDYAMH, GISWNSGSIGYADSVK, VGRGGGYFDY; each variant's own CDRs replace them letter for letter.
Numbers give log10(Kd / nM), so 0 is 1 nM and 3 is 1 µM. Smaller is tighter.
Where no diploid with the target was found in that replicate, the entry reads "ND": below detection, most likely a poor binder, though not proof of it.
As a blank, each scFv also met three strains without target: over library AAYL51, 21% of these pairings were detected, typically at 4.54 and seldom below 3.26. For each scFv, signals with the empty controls are counted beside the result, with their mean in brackets.

CDR-H1,CDR-H2,CDR-H3,log10 Kd (nM) by replicate,empty controls
GNTFDDYAMH,CISWNSGSIGYADSVK,VGRFGGYFDY,ND / 4.57 / 5.02,5/9 (4.49)
GFTFDDWAMH,GISWNSGSIIYADSVK,DGRGGGYFDY,ND / ND / ND,0/9
GFTFDKYAVH,GISWNSGSIGYADSVK,VGAGGGYFDY,1.14 / 1.26 / 0.57,1/9 (4.91)
GFTFDDYAMH,GISWNSGSIGYADGVR,VERGGGYFDY,5.44 / 6.72 / ND,5/9 (5.19)
LFTFDDYAMC,GISWNSGSIGLADSVK,VGRGGGYFDY,ND / ND / ND,0/9
GTTFDDYAMH,GISWNSGWIGYADSVK,VGRGGGEFDY,ND / ND / ND,1/9 (3.45)
GFTFDDYAMH,GIPWNSGNIGYADSVD,VGRGGGYFDY,ND / ND / ND,0/9
GFTFDDYAMH,GINWNSISIGYADEVK,VGRGGGYFDY,ND / ND / ND,0/9
GFTFDDYAMH,GIWWNNGSIGYADSVK,VGRGGGYFDY,ND / 4.99 / ND,2/9 (5.03)
GFTFDDYAMH,GISWNSGSIGYADSCK,VGRGGGYFDY,4.36 / ND / ND,0/9
GFWFDDYIMH,GISWNSGSIGYADSVK,VGRGGGYFDY,ND / ND / 3.95,0/9
GNTFDDYAMH,GISWNSGSRGYADSVK,VGSGGGYFDY,ND / ND / ND,0/9
GDTFDDYAMH,GISWNSGGIGYADSVE,VGRGGGYFDY,ND / ND / ND,0/9
GFTFCDYAMH,GISWNSGSIGGADMVK,VGRGGGYFDY,4.06 / 2.99 / ND,1/9 (3.40)
GFTFCDYARH,GISWNSGSIGYADSDK,VGRGGGYFDY,4.88 / 6.38 / ND,2/9 (4.81)
GFTFDHYAHH,GISWNSGSIGYADSVK,VGRGGGYFNY,ND / ND / ND,1/9 (4.00)
GGVFDDYAMH,GISWNSGFIGYADSVK,VGRGGGYFDY,ND / ND / ND,0/9
GFTFDDYIMH,GISWNSGSIGYTDSVK,VGRGGAYFDY,ND / ND / ND,2/9 (3.99)
GFTFDDYAMQ,GISWNSGSIGYADSVK,VDRGGGRFDY,4.22 / 6.55 / ND,5/9 (4.68)
GFTFDDYAMH,GISWNSGSIGYADSVK,VGRGGGYFDL,0.78 / 0.75 / 0.10,3/9 (3.58)
GFTFDDYAMH,GISWYSGSIGYRDSVK,VGRGGGYFDY,ND / 4.61 / 4.71,2/9 (3.37)
GFTFDIYAMH,GISWWSGSIGYWDSVK,VGRGGGYFDY,ND / ND / ND,1/9 (4.61)
GFTFDDYAMH,GISWNSGSIGYADCVD,VGRGGNYFDY,1.35 / 1.30 / 0.83,4/9 (5.09)
GFTFDDYAMH,GGSWNSVSIGYADSVK,VGRGGGAFDY,2.47 / 4.55 / ND,1/9 (2.20)
WFTFDDYAMH,GISWNLGSIGYADSVG,VGRGGGYFDY,ND / ND / ND,1/9 (3.91)
GFTFDDYAMH,GISKNSGSIGYADSVK,VGRGGMYFDY,5.64 / 6.60 / 5.53,6/9 (4.45)
GFTFDPYAMH,GIQWPSGSIGYADSVK,VGRGGGYFDY,3.96 / 5.76 / ND,3/9 (4.73)
GFTFDDYAMH,GWSWNSGSIGYADSVK,VGRGGGMFLY,4.93 / ND / 4.72,0/9
GFTFDDYAMH,GISWNSLSHGYAPSVK,VGRGGGYFDY,ND / ND / ND,1/9 (3.57)
GFTYDDYAMH,GISTNSGSIGYADSVK,VGRGGNYFDY,4.53 / 4.76 / ND,7/9 (4.83)
GFMFDDYAMH,GISWNSGSIGYYISVK,VGRGGGYFDY,ND / ND / ND,0/9
GFTFDNYAMH,GISWNSGSIGYADSVG,VGRGGGYFDQ,1.88 / 1.81 / 1.61,1/9 (5.35)